Results as given in article PMC5199614 (Journal of bone and mineral research : the official journal …, 2016).

Assay: Persistence of injected ligand in mouse blood and urine
Conditions: mice, iv 50 nmol/kg

## [Lys^13(tetramethyl rhodamine {TMR}), Cys^35(PEG-20,000 Da)]PTH(1-35) [PEG-PTH^TMR]
Spot urine
  TMR fluorescence in urine, versus PTH^TMR: less TMR fluorescence detected in the urine
1 μL plasma in PBS, TMR fluorescence, n = 6
  last time point at which plasma TMR fluorescence was detected: ≥ 8 h
cAMP bioassay and TMR fluorescence of blood
  persistence (detectability) in the circulation after injection: > 24 h
